According to US4088642A (priority 1973, dated 1978):

Tests used:
[1] = Gas evolution temperature; assay type: physicochemical; details: Table III
[2] = Table III
[3] = Table III; remark: listed apart in the source

## CC(C#N)(N=NC(C)(C#N)C(C)(C)OO)C(C)(C)OO (stereo not shown)
[1]
  Gas Evolution Temperature: 70 °C
[2]
  Shock Sensitivity: negative
[3]
  Ten Hour Half-Life Temperature, Azo: ≈ 65 °C
  Ten Hour Half-Life Temperature, Peroxide: 160-170 °C
